# Measured affinities in a library of Ab-14 light chain variants

Target peptide (SARS-CoV-2 spike, HR2 region): PDVDLGDISGINAS

Ab-14 is the parent antibody, in scFv form: VH, then a (GGGGS)3 linker, then VL. The heavy chain is unchanged in all variants.
VH: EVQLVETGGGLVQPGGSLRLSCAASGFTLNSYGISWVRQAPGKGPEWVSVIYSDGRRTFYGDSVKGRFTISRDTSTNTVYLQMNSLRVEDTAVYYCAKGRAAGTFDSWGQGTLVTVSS
VL: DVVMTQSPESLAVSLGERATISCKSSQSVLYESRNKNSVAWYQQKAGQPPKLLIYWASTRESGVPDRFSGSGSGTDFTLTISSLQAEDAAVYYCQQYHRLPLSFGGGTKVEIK

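These sequences belong to a second round, designed from the earlier measurements on random variants of the parent. Group labels follow the data file (Ctrl: baseline library sampled from a position-specific scoring matrix, with some repeated check sequences; En: ensemble of fine-tuned language models; GP: Gaussian process model; HC: hill climbing; Gen: genetic algorithm; Gibbs: Gibbs sampling; a sequence that several methods proposed may carry one label only). Affinity was read by AlphaSeq, a pooled yeast mating assay with surface-displayed partners. Binding brings cells together so that they mate, and sequencing counts the barcode pairs among the diploids. A regression on co-assayed BCL2-family reference pairs converts the normalised counts of each replicate to an apparent Kd. Mating was done six times.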

Variants are written as CDR1, CDR2 and CDR3 of the light chain (limits as in the source). Parent: KSSQSVLYESRNKNSVA, WASTRES, QQYHRLPLS.
This list holds designs with more than six substitutions.
Each Kd is an estimate from the mating assay, the geometric mean of the replicates in which the pair was seen; lower is stronger.
An entry "nd" has no value in the source: the pair was not observed among the diploids in any replicate. This suggests poor binding but is not conclusive.
The list is sorted by this average, lowest first, undetected variants last.
Background: pairings of all light chain designs with three empty control strains gave a value in 4% of cases (median 430 nM, 5th percentile 38 nM). Values in that range, when seen in few replicates, are hard to tell from nonspecific mating.
The authors' rule: three or more of the six replicates give a measured affinity, fewer mean a poor binder.
Of ten entries with the parent sequence, four were seen in most replicates (averages 2.2 nM to 240 nM), three in one and three in none, so single entries are noisy.
The range of this assay differs from that of the first round, and the authors advise against merging the two.

* NIYQAMHTLSQSRNNVA / DVNERGS / QQYFRLPLS [En_Gen] = 330 pM (6 of 6 replicates)
* KVSQQGLYGDRNANSVA / NASTRED / QQYHRLPLS [GP_Gibbs] = 530 pM (6 of 6 replicates)
* KFPQSNGYETRNKNSVA / EASQREQ / QQYHRLPLS [GP_Gibbs] = 650 pM (6 of 6 replicates)
* KQSQSWLYESRNKNSIA / NANQREQ / QQYHRLPLS [GP_Gibbs] = 720 pM (6 of 6 replicates)
* KVSQSVMMGSRNKNSVA / NASQREQ / QQYHRLPLS [GP_Gibbs] = 870 pM (6 of 6 replicates)
* QIYQAMHTLSQHKDNVA / DVTERGN / QQYFRLPLS [En_Gen] = 870 pM (6 of 6 replicates)
* KLSQATRMESRNKASVA / ENSTRED / QQYFRLPLS [En_HC] = 1.1 nM (6 of 6 replicates)
* TISSSMRYESSLKNAIA / NAQTRES / QQYHRLPIS [En_HC] = 1.3 nM (6 of 6 replicates)
* KLGGMTAIESRNLNSVA / QMDTRES / QQYHRLPLS [En_HC] = 1.9 nM (6 of 6 replicates)
* KIGATLNMMSHKKNNVA / DLVTREE / QQYHRLPLS [En_Gen] = 2.2 nM (6 of 6 replicates)
* HMSMLTLTGSRQRNSVA / QMTTREN / QQYDRLPLM [En_Gen] = 2.3 nM (6 of 6 replicates)
* KLSQSWGGEWRNKNSVA / HASTREQ / QDYHRLPLS [GP_Gibbs] = 2.5 nM (6 of 6 replicates)
* KIGMTLNQLMHGKNNVA / DLVMREK / QQYHRLPLS [En_Gen] = 2.7 nM (6 of 6 replicates)
* TLTQVQGMESHNSNSVA / DLSTRGS / QQYHRLPLS [En_HC] = 2.9 nM (6 of 6 replicates)
* KLYDMAAVTMQNIRNVA / DNSTREE / QQYHRLPLS [En_Gen] = 3.1 nM (6 of 6 replicates)
* HITYGMQVMGRHSKSIA / QAEERAK / QQYDRLPLV [En_Gen] = 3.6 nM (6 of 6 replicates)
* NLVEMEGTNQTKMGNIA / SVDQRMD / QQYQRLPLI [En_Gibbs] = 3.7 nM (6 of 6 replicates)
* KISFNMGETQRNKNSVA / EVSTVPS / QQYWRLPLS [En_HC] = 5.7 nM (6 of 6 replicates)
* KVSQSNLGESRMKNSVA / HAHQRES / QQYHRLPLS [GP_Gibbs] = 6.3 nM (6 of 6 replicates)
* RLFNKMGQLQNIAQNVA / NATTVIN / QSYMRLPLT [En_Gibbs] = 6.8 nM (6 of 6 replicates)
* MITQMETPAGQQEHSIA / HGGTKIE / QQYNRLPLA [En_Gibbs] = 7.0 nM (6 of 6 replicates)
* TIGQTLMQGVRNRSNVA / EVSERLN / QQYDRLPLI [En_Gen] = 7.1 nM (6 of 6 replicates)
* MINMEVGIEDMKWNSVA / SAHVRAF / QQYGRLPFS [En_Gibbs] = 8.1 nM (6 of 6 replicates)
* HIQDDAGGLKEQFDSVA / STEERSY / QQYSRLPLS [En_Gibbs] = 8.6 nM (6 of 6 replicates)
* KMSQSMLYESRASNSVA / NASNRLS / QQYHRLPLS [GP_Gibbs] = 9.8 nM (6 of 6 replicates)
* KISQMVRVGSTHSNSIA / EEETRAK / QQYHRLPLA [En_Gen] = 10 nM (6 of 6 replicates)
* KFAYQADMYGAQCNNVA / HADIREP / QQYFKLPLT [En_Gibbs] = 28 nM (6 of 6 replicates)
* KLQQSHLYGSRMKNSVA / HASQRES / QCYHRLPLS [GP_Gibbs] = 36 nM (6 of 6 replicates)
* KISINQSNYGGMRSAIA / DTNLARM / QQYYHLPLM [En_Gibbs] = 46 nM (3 of 6 replicates)
* KVSEFMRGLMMRKDNIA / DNNTRNS / QQYDRLPLS [En_Gen] = 53 nM (6 of 6 replicates)
* ILSQSVLMGMHTKNSVA / QATMRFN / QQYNRLPFM [En_HC] = 80 nM (6 of 6 replicates)
* KDSDSMLYLERNKNSVA / WASTREA / QQYHQLPLS [Ctrl] = 110 nM (2 of 6 replicates)
* MIAGSMESQEANWAPVA / SATCKEP / QQYSRLPLM [En_Gibbs] = 110 nM (6 of 6 replicates)
* KIGLVTNGISFSKNSVA / EQSTREN / QQYDRLPLS [En_HC] = 110 nM (1 of 6 replicates)
* SLTAHHQEAKSAENSVA / EAVMLES / QQYHQLPLM [En_Gibbs] = 130 nM (5 of 6 replicates)
* KISMLINMTFEQSNNVA / EMVTRYK / QQYNRLPLS [En_Gen] = 140 nM (6 of 6 replicates)
* KLSLFYRVETQQKNSVA / DNSTRES / QDYDRLPLS [En_HC] = 200 nM (2 of 6 replicates)
* KLQNFSQEHNGMWNSIA / DETMKHT / QHYNRLPLV [En_Gibbs] = 240 nM (2 of 6 replicates)
* KIRNDFYEGIQNASNVA / GHHESID / QQYSMLPLI [En_Gibbs] = 1.5 µM (2 of 6 replicates)
* KLMQSLQGEPKDWYAVA / EGESATT / QQYARLPLM [En_Gibbs] = 1.8 µM (3 of 6 replicates)
* FLTYQQDQTGLQYNAIA / QVNLKEN / QQYGRLPFA [En_Gibbs] = nd (0 of 6 replicates)
* SLAESMHMESRNKNSVA / DNSTRES / QHYHRLPLS [En_HC] = nd (0 of 6 replicates)

Source: Li et al. 2023 (doi:10.1038/s41467-023-39022-2), MIT Lincoln Laboratory and A-Alpha Bio; data file from the FLAb repository.